Test results reported in US20260092057A1, “BCL-XL/BCL-2 DEGRADERS AND USES THEREOF” (Kymera Therapeutics, Inc., priority 2022, published 2026).

Sequences of proteins named here, by UniProt entry; tags and fusion partners are left off.
UniProt Q07817, whole entry: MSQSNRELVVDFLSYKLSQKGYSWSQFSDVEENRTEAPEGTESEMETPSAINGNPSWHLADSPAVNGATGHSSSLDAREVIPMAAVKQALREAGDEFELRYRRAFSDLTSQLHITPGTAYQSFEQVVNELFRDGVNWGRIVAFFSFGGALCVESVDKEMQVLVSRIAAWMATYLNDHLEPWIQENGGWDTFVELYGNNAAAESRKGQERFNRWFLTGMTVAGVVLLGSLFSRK

Columns and labels:
BCL-XL = BCL-XL (Homo sapiens, UniProt Q07817); experiment: BCL-XL degradation assay in MOLT-4 cells (ELISA, 6 h); conditions: for DC50: read-out: Bcl-xL ELISA in MOLT-4 degradation 6 h: External Abs-DC50
Caki-2 cells = experiment: CTG (CellTiter-Glo) cell viability assay, Caki-2; conditions: read-out: CTG Chempartner/PHA- Caki-2 3-day: Average external-IC50
Protocol: (§1) Compound-mediated viability effect on MOLT-4 and Caki-2 was quantitatively determined using the CellTiter-Glo® Luminescent Cell Viability Assay kit from Promega (Catalog number G7570) following manufacturer's recommended procedures. Briefly, MOLT-4 and Caki-2 cells were seeded into 384 well plates (Grenier Bio-One, Catalog number 781080) with a density of 10,000 cells per well. Compounds were then added to the assay plate with final top concentration of 10 µM and 1:3 dilution series with total of 9 doses. The final DMSO concentration is normalized to 0.2%. The assay plates were incubated at 37° C. for 3 days under 5% CO2. Then the assay plate was equilibrated at room temperature for 10 minutes. To determine cell viability, 30 uL CellTiter Glo reagent was added to each well and the assay plate was centrifuged at 1000 rpm for 30 second, incubated at room temperature for 10 min, and analyzed by detecting the luminescence using a multimode plate reader (EnVision 2105, PerkinElmer). The data was then analyzed by software Prism 7.0 from GraphPad and the dose response curves are fit using a three-parameter logistic equation to calculate IC50.
(§2) The letter codes for MOLT-4 IC50 include: A (<0.1 μM); B (0.1-1.0 μM); C (>1.0-3.0 μM); and D (>3.0 μM). The letter codes for Caki-2 IC50 include: A (<5 μM); B (5-10 μM); C (>10-30.0 μM); and D (>30.0 μM).

MOLT-4 cells = experiment: CTG (CellTiter-Glo) cell viability assay, MOLT-4; conditions: read-out: CTG Cell Viability Assay - MOLT-4 3 day: Average external-IC50
Protocol: as §1, §2

Bcl-xL ELISA in MOLT-4 degradation 6 h: Dmax % (BCL-XL)	DC50 (BCL-XL)	IC50 (MOLT-4 cells)	SMILES	IC50 (Caki-2 cells)
B (B (50 to 75%))	0.5 to 1 µM	> 3 µM	Cc1ncsc1-c1ccc([C@H](C)NC(=O)[C@@H]2C[C@@H](O)CN2C(=O)[C@@H](NC(=O)CCCCCCC(=O)Nc2ccc(-c3ccc(Cl)cc3)c(CN3CCN(c4ccc(C(=O)NS(=O)(=O)c5ccc(N[C@H](CCN(C)C)CSc6ccccc6)c([N+](=O)[O-])c5)cc4)CC3)c2)C(C)(C)C)cc1	> 30 µM
C (C (<50%))	0.5 to 1 µM	> 3 µM	Cc1ncsc1-c1ccc([C@H](C)NC(=O)[C@@H]2C[C@@H](O)CN2C(=O)[C@@H](NC(=O)CCCCCCN2CCN(C(=O)c3ccc(-c4ccc(Cl)cc4)c(CN4CCN(c5ccc(C(=O)NS(=O)(=O)c6ccc(N[C@H](CCN(C)C)CSc7ccccc7)c([N+](=O)[O-])c6)cc5)CC4)c3)CC2)C(C)(C)C)cc1	> 30 µM
B (B (50 to 75%))	0.01 to 0.1 µM	0.1 to 1 µM	Cc1ncsc1-c1ccc([C@H](C)NC(=O)[C@@H]2C[C@@H](O)CN2C(=O)[C@@H](NC(=O)CCCCCCCN2CCN(CCCNc3ccc(S(=O)(=O)NC(=O)c4ccc(N5CCN(CC6=C(c7ccc(Cl)cc7)CC(C)(C)CC6)CC5)cc4Oc4cnc5[nH]ccc5c4)cc3S(=O)(=O)C(F)(F)F)CC2)C(C)(C)C)cc1	> 30 µM

SMILES	Bcl-xL ELISA in MOLT-4 degradation 6 h: Dmax % (BCL-XL)	DC50 (BCL-XL)	IC50 (MOLT-4 cells)	IC50 (Caki-2 cells)
Cc1ncsc1-c1ccc([C@H](C)NC(=O)[C@@H]2C[C@@H](O)CN2C(=O)[C@@H](NC(=O)CCCCCCC(=O)N2CCN(CC[C@H](CSc3ccccc3)Nc3ccc(S(=O)(=O)NC(=O)c4ccc(N5CCN(Cc6ccccc6-c6ccc(Cl)cc6)CC5)cc4)cc3[N+](=O)[O-])CC2)C(C)(C)C)cc1	C (C (<50%))	0.5 to 1 µM	> 3 µM	> 30 µM
